According to article PMC9519446, “Discovery of an Orally Active Benzoxaborole Prodrug Effective in the Treatment of Chagas Disease in Non-human Primates” (Nature microbiology, 2022):
“And” between values parts separate entries of the source, which are not always exact repeats. Identical values can stand only once.

Tested on: tdTomato expressing T. cruzi (CL strain)
Assay: Rapid in vivo assay: footpad infection, single oral dose, fluorescence imaging 2 and 4 dpi (proliferation index)
Design: species or system C57BL/6 mice
Details: Fig. 3a; individual footpads
Description: C57BL/6 mice were injected in the hind footpads with 2.5x10^5 tdTomato expressing T. cruzi (CL strain) and orally treated with a single dose of the compounds (50 mg/kg) at 2 dpi. Fluorescent intensity of the feet was measured at 2 dpi before compound administration and at 4 dpi in the Maestro in vivo imaging system equipped with the software Maestro 2.1.0 (CRi) as previously described. The proliferation index was estimated as PI=[(T4d – T2d)/(mUnt4d-mUnt2d)]*100; where T4d and T2d are the fluorescence intensity of the feet of the treated animals at days 4 and 2 post-infection respectively; mUnt4d and mUnt2d are the average fluorescence intensity of the feet of the untreated animals at 4 and 2 dpi respectively.

`Cc1c(C(=O)N[C@H](C(=O)OCC2CCOCC2)C(C)C)ccc2c1B(O)OC2` [AN15368] was tested, and the “Parasite proliferation index of footpads infected with tdTomato-expressing T. cruzi” value was -34.4 and -61.2 and 16.3 and -0.5 and -23.3 and -8.5 and 9.6 and -13.5 and -3.4 and 18.2.
